Results reported in patent EP4825860A1, “FUSED RING NITROGEN-CONTAINING COMPOUND, CRYSTAL FORM THEREOF, PREPARATION METHOD THEREFOR, AND USE THEREOF” (dated 2026).

Columns and labels:
[1] = Rat PK Assay, oral administration; conditions: SD rats, 50mg/kg, dispersed in 0.5% MC/water + 0.1% Tween 80, plasma
Protocol: The purpose of this experiment was to study the pharmacokinetics of the test compounds administered orally to SD rats (SPF grade, Beijing Vital River Laboratory Animal Technology Co., Ltd.). The experimental procedure was as follows: • 1) The above compound crystalline forms were uniformly dispersed in a mixture of 99.9% (0.5% MC (450 cp)/water) + 0.1% Tween 80 at a concentration of 5.0 mg/mL, and then administered orally (10 mL/kg); • 2) Blood samples were collected at 0.083, 0.25, 0.5, 1, 2, 4, 6, 8, and 24 hours, with 0.25 mL collected each time, and EDTA-K2 was added. After collection, the blood samples were placed on ice and centrifuged within 1 hour to separate plasma (centrifugation conditions: 6000 g, 3 minutes, 2-8°C). Plasma samples were stored in a -80°C freezer prior to analysis; • 3) For sample analysis, the concentration of the compound in the plasma samples was analyzed using an LC-MS/MS method. For the plasma assay results, pharmacokinetic parameters were calculated using WinNonlin (Phoenix, version 8.2.0) or other similar software.

[2] = Solid-state stability of crystalline forms on storage (Test Example 1, XRPD); conditions: open conditions at 25°C/60% RH and sealed conditions at 60°C for two weeks
Protocol: The crystalline form C of the compound of formula I obtained in Example 1-2, the crystalline form C of the compound of formula V obtained in Example 9, the crystalline form A of the compound of formula IX obtained in Example 13, and the crystalline form F of the compound of formula IX obtained in Example 24 were placed under open conditions at 25°C/60% RH and sealed conditions at 60°C for two weeks.

[3] = Hygroscopicity test with RH gradient (Test Example 2); conditions: gradient of 40-0-95-0-40% RH, 25°C
Source text: The hygroscopicity characterization and the definition of hygroscopic weight gain involved in the present invention (refer to the Hygroscopicity Test Guideline for Drugs, Part IV, Chinese Pharmacopoeia 2020 Edition) are as follows: • Deliquescent: Absorbs sufficient moisture to form a liquid; • Extremely hygroscopic: Hygroscopic weight gain not less than 15%; • Hygroscopic: Hygroscopic weight gain less than 15% but not less than 2%; • Slightly hygroscopic: Hygroscopic weight gain less than 2% but not less than 0.2%; • Non-hygroscopic or almost non-hygroscopic: Hygroscopic weight gain less than 0.2%.
Test method: A gradient of 40-0-95-0-40% RH was set, with dm/dt 0.002/s. The system was equilibrated for 60~360 min for every 10% RH change. The test temperature was 25°C.

[4] = Solubility of crystalline forms in media at 37°C (Test Example 3)
Protocol: The crystalline form C of the compound of formula I, the crystalline form A of the compound of formula III, the crystalline form C of the compound of formula V, and the crystalline form A of the compound of formula IX obtained in the above examples were subjected to solubility testing. The test method was as follows: The crystalline form C of the compound of formula I (8 mg), the crystalline form A of the compound of formula III (9 mg), the crystalline form A of the compound of formula IX (11.7 mg), and the crystalline form C of the compound of formula V (10 mg) were weighed into 20 mL glass vials, respectively. 4 mL of medium was added to each. The resulting suspensions or clear solutions were stirred at 37°C at 400 rpm. Samples (0.5 mL each) were taken at 0.5 hours and 2 hours, and centrifuged at 37°C at 14,000 rpm for 5 min. The resulting filtrates were finally subjected to content testing.

[5] = listed as Crystalline Form A of the compound of Formula II
[6] = Fasted State Simulated Gastric Fluid, dissolution time 0.5h
[7] = Fasted State Simulated Gastric Fluid, dissolution time 2h
[8] = Fasted State Simulated Intestinal Fluid, dissolution time 0.5h
[9] = Fasted State Simulated Intestinal Fluid, dissolution time 2h
[10] = Fed State Simulated Intestinal Fluid, dissolution time 0.5h
[11] = Fed State Simulated Intestinal Fluid, dissolution time 2h

AUC(0-t) [1, 5] [µg·h/mL] | Cmax [1, 5] [ng/mL] | Tmax [1, 5] [h] | stability of the crystalline form (XRPD patterns after storage) [2] | hygroscopicity [3] | water absorbed [3] [%] | AUC(0-t) [1] [µg·h/mL] | Cmax [1] [ng/mL] | Tmax [1] [h] | crystalline form before and after the test [3] | SMILES | Solubility (mg/mL) [4, 6] | Solubility (mg/mL) [4, 7] | Solubility (mg/mL) [4, 8] | Solubility (mg/mL) [4, 9] | Solubility (mg/mL) [4, 10] | Solubility (mg/mL) [4, 11] | Solubility (mg/mL) ([4]; Water, dissolution time 0.5h) | Solubility (mg/mL) ([4]; Water, dissolution time 2h)
 |  |  | good stability | non-hygroscopic |  |  |  |  | remained unchanged | COc1cnc(Cl)cc1-c1cc(C)ncc1C(=O)Nc1nc2cnc(-c3c(C)nnn3C)c(F)c2s1 [crystalline form C of the compound of formula I] | A (A indicates solubility of 0.01-0.1 mg/mL) | A (A indicates solubility of 0.01-0.1 mg/mL) | A (A indicates solubility of 0.01-0.1 mg/mL) | A (A indicates solubility of 0.01-0.1 mg/mL) | A (A indicates solubility of 0.01-0.1 mg/mL) | A (A indicates solubility of 0.01-0.1 mg/mL) | A (A indicates solubility of 0.01-0.1 mg/mL) | A (A indicates solubility of 0.01-0.1 mg/mL)
 |  |  | good stability |  | 1.7 |  |  |  |  | COc1cnc(Cl)cc1-c1cc(C)ncc1C(=O)Nc1nc2cnc(-c3c(C)nnn3C)c(F)c2s1 [crystalline form C of the compound of formula V] | B (B indicates solubility of 0.1-1 mg/mL) | B (B indicates solubility of 0.1-1 mg/mL) | B (B indicates solubility of 0.1-1 mg/mL) | B (B indicates solubility of 0.1-1 mg/mL) | B (B indicates solubility of 0.1-1 mg/mL) | B (B indicates solubility of 0.1-1 mg/mL) | A (A indicates solubility of 0.01-0.1 mg/mL) | A (A indicates solubility of 0.01-0.1 mg/mL)

The next lines start with the compound.

SMILES | AUC(0-t) [1, 5] [µg·h/mL] | Cmax [1, 5] [ng/mL] | Tmax [1, 5] [h] | stability of the crystalline form (XRPD patterns after storage) [2] | hygroscopicity [3] | water absorbed [3] [%] | AUC(0-t) [1] [µg·h/mL] | Cmax [1] [ng/mL] | Tmax [1] [h] | crystalline form before and after the test [3] | Solubility (mg/mL) [4, 6] | Solubility (mg/mL) [4, 7] | Solubility (mg/mL) [4, 8] | Solubility (mg/mL) [4, 9] | Solubility (mg/mL) [4, 10] | Solubility (mg/mL) [4, 11] | Solubility (mg/mL) ([4]; Water, dissolution time 0.5h) | Solubility (mg/mL) ([4]; Water, dissolution time 2h)
COc1cnc(Cl)cc1-c1cc(C)ncc1C(=O)Nc1nc2cnc(-c3c(C)nnn3C)c(F)c2s1 | 5.997 | 543 | 10.7 | good stability |  |  |  |  |  |  |  |  |  |  |  |  |  | 
COc1cnc(Cl)cc1-c1cc(C)ncc1C(=O)Nc1nc2cnc(-c3c(C)nnn3C)c(F)c2s1 [crystalline form A of the compound of formula III] |  |  |  |  | moderate hygroscopicity | 4.8 |  |  |  |  | B (B indicates solubility of 0.1-1 mg/mL) | B (B indicates solubility of 0.1-1 mg/mL) | B (B indicates solubility of 0.1-1 mg/mL) | A (A indicates solubility of 0.01-0.1 mg/mL) | B (B indicates solubility of 0.1-1 mg/mL) | B (B indicates solubility of 0.1-1 mg/mL) | A (A indicates solubility of 0.01-0.1 mg/mL) | A (A indicates solubility of 0.01-0.1 mg/mL)
COc1cnc(Cl)cc1-c1cc(C)ncc1C(=O)Nc1nc2cnc(-c3c(C)nnn3C)c(F)c2s1 [crystalline form A of the compound of formula IX] |  |  |  | good stability |  | 0.2 | 743.182 | 97800 | 0.833 |  | B (B indicates solubility of 0.1-1 mg/mL) | B (B indicates solubility of 0.1-1 mg/mL) | B (B indicates solubility of 0.1-1 mg/mL) | B (B indicates solubility of 0.1-1 mg/mL) | B (B indicates solubility of 0.1-1 mg/mL) | B (B indicates solubility of 0.1-1 mg/mL) | A (A indicates solubility of 0.01-0.1 mg/mL) | A (A indicates solubility of 0.01-0.1 mg/mL)
